# According to PubChem BioAssay AID602281 (The Scripps Research Institute Molecular Screening Center, 2012):
# By UniProt entry, the sequences of proteins in these tests, tags left out.
# UniProt Q00G26, whole entry, looked up: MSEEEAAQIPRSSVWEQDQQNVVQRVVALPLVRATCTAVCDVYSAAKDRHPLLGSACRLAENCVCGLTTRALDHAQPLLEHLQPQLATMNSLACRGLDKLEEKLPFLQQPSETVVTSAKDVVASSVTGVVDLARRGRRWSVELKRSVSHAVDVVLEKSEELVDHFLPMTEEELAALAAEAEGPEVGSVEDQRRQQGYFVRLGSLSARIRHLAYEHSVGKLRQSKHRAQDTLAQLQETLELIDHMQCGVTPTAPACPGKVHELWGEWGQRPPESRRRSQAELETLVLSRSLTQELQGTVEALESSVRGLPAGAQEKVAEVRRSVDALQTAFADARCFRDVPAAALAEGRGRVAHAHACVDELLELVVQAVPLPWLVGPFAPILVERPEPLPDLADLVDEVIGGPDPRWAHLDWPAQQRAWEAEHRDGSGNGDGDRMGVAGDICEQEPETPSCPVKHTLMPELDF
# UniProt Q8WTS1, whole entry, looked up: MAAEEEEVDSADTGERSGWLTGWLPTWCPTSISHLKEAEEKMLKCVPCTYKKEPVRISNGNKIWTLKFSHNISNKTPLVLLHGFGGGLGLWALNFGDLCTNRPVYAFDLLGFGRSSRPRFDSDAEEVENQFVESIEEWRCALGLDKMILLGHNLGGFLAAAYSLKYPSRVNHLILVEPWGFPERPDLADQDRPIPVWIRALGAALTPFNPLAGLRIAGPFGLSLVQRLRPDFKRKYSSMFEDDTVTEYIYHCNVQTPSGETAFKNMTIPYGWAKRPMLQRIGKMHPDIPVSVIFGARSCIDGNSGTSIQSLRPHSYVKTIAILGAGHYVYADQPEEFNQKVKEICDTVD
# The list shows a part of the results, in another mix than the full data. The source made the active and inactive calls.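 The calls were made as follows: active = inhibition above the mean inhibition across every tested compound plus 3 SD (cut at about 22% in these data); inactive = the rest.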
# Target: Perilipin-5 (Homo sapiens) + 1-acylglycerol-3-phosphate O-acyltransferase ABHD5 (Homo sapiens) (UniProt Q00G26+Q8WTS1)
# Test: ABHD5-PLIN5 interaction inhibitors, primary screen, cell lysate, split luciferase complementation, luminescence (AID 602281);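 also: 0% = DMSO only wells and the 100% control is not disclosed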
# Conditions: Split G. princeps luciferase complementation, 4 h, at 4 µM, stronger effect = higher value
row,Structure (SMILES),inhibition
1,O=C(NCC1(N2CCCCC2)CCCCC1)c1ccc(OC(F)F)cc1,inactive: 0.71%
2,CC(C)(C)n1nnnc1C(c1ccccc1OC(F)(F)F)N1CCC(n2c(=O)[nH]c3ccccc32)CC1 (stereo not drawn),inactive: 2.8%
3,CSc1ccc(C(=O)NCC2(N3CCOCC3)CCCCC2)cc1,inactive: -5.85%
4,O=C(NCC1(N2CCCCC2)CCCCC1)c1cccc([N+](=O)[O-])c1,inactive: 3.47%
5,O=c1[nH]c2ccccc2n1C1CCN(C(c2ccccc2OC(F)(F)F)c2nnnn2C2CCCC2)CC1 (stereo not drawn),inactive: -6.07%
6,N#CC1(Nc2ccccc2)CCN(CCc2ccccc2)CC1,inactive: 0.54%
7,CCN1CCC(Nc2ccc(Cl)cc2)CC1,inactive: -4.57%
8,O=C(NCC1(N2CCCCC2)CCCCC1)c1cccc(C(F)(F)F)c1,inactive: -1.98%
9,COc1ccc(NC2CCN(C(=O)OC(C)(C)C)CC2)cc1,inactive: 0.78%
10,CC(C)c1ccc(C(=O)NCC2(N3CCOCC3)CCCCC2)cc1,inactive: -4.85%
11,CN1CCN(CCOC(=O)C(O)(c2ccccc2)c2ccccc2)CC1,inactive: -3.77%
12,CCCCn1nnnc1C(c1cccc2ccccc12)N1CCC(n2c(=O)[nH]c3ccccc32)CC1 (stereo not drawn),inactive: 10%
13,O=C(NCC1(N2CCOCC2)CCCCC1)c1cc(=O)[nH]c2ccccc12,inactive: 4.09%
14,COc1cc(C(=O)NCC2(N3CCCCC3)CCCCC2)ccc1OC(F)F,inactive: 3.08%
15,CN(C)c1cccc(C(=O)NCC2(N3CCCCC3)CCCCC2)c1,inactive: -10%
16,COc1ccc(CN(CCCl)CCCl)cc1Cl,inactive: 3.82%
17,CC(C)c1ccc(NC2CCN(C(=O)OC(C)(C)C)CC2)cc1,inactive: -3.83%
18,CCCCn1nnnc1C(c1ccccc1OC(F)(F)F)N1CCC(n2c(=O)[nH]c3ccccc32)CC1 (stereo not drawn),inactive: -5.08%
19,CCCCn1nnnc1C(c1ccnc2ccccc12)N1CCC(n2c(=O)[nH]c3ccccc32)CC1 (stereo not drawn),inactive: 4.91%
20,CCC(c1nnnn1C(C)(C)C)N1CCC(n2c(=O)[nH]c3ccccc32)CC1 (stereo not drawn),inactive: -0.4%
21,O=C(NCC1(N2CCOCC2)CCCCC1)c1cc(F)c(F)cc1Cl,inactive: 10.3%
22,COc1cc(OC)c(C(=O)NCC2(N(C)C)CCCCC2)cc1OC,inactive: 3.62%

row,Structure (SMILES),inhibition
1,CN1CCC(Nc2cccc(F)c2)CC1,inactive: 0.03%
2,O=C(NCC1(N2CCCCC2)CCCCC1)c1cncc(Br)c1,inactive: -0.32%
3,CCCOc1ccc(C(=O)NCC2(N(C)C)CCCCC2)cc1OC,inactive: -9.77%
4,Cc1ccc(C(=O)NCC2(N(C)C)CCCCC2)o1,inactive: 4.57%
5,COc1ccc(C(c2nnnn2C2CCCC2)N2CCC(n3c(=O)[nH]c4ccccc43)CC2)cc1 (stereo not drawn),inactive: 3.96%
6,CCCCn1nnnc1C(CC)N1CCC(n2c(=O)[nH]c3ccccc32)CC1 (stereo not drawn),inactive: 2.82%
7,O=C(NCC1(N2CCCCC2)CCCCC1)c1cccs1,inactive: 3.9%
8,CCCCn1nnnc1C(c1cccs1)N1CCC(n2c(=O)[nH]c3ccccc32)CC1 (stereo not drawn),inactive: 10.3%
9,O=C(NCC1(N2CCCCC2)CCCCC1)c1ccc(=O)[nH]c1,inactive: -7.95%
10,COc1ccc(C(=O)NCC2(N3CCCCC3)CCCCC2)c(OC)c1OC,inactive: 1.4%
11,CC(C)(C)OC(=O)N1CCC(N(C(=O)c2ccccc2)c2ccc(F)cc2)CC1,inactive: 1.39%
12,CCC(c1nnnn1C1CCCC1)N1CCC(n2c(=O)[nH]c3ccccc32)CC1 (stereo not drawn),inactive: 4.81%
13,COc1ccc(C(=O)NCC2(N3CCCCC3)CCCCC2)cc1,inactive: 1.77%
14,Cc1cccc(NC2(C#N)CCN(Cc3ccccc3)CC2)c1,inactive: -0.36%
15,CSc1ccccc1C(=O)NCC1(N2CCCCC2)CCCCC1,inactive: -4.63%
16,O=C(NCC1(N2CCOCC2)CCCCC1)c1cc2ccccc2o1,inactive: 0.94%
17,Cc1cc(C)cc(N(C(=O)c2ccccc2)C2CCN(C(=O)OC(C)(C)C)CC2)c1,inactive: 0.91%
18,O=C(NCC1(N2CCCCC2)CCCCC1)c1ccc(Cl)nc1,inactive: 3.44%
19,O=c1[nH]c2ccccc2n1C1CCN(C(c2ccccc2OC(F)(F)F)c2nnnn2C2CCCCC2)CC1 (stereo not drawn),inactive: 0.81%
20,CCCCn1nnnc1C(c1ccc(OC)cc1)N1CCC(n2c(=O)[nH]c3ccccc32)CC1 (stereo not drawn),inactive: 0.68%
21,CCOC(=O)N1CCC(Nc2ccc(OC)cc2)CC1,inactive: -3.51%
22,COc1ccc(Cl)cc1C(=O)NCC1(N2CCOCC2)CCCCC1,inactive: -8.18%

row,Structure (SMILES),inhibition
1,N#CC1(Nc2ccccc2)CCN(Cc2ccccc2)CC1,inactive: 1.29%
2,O=C(NCC1(N2CCCCC2)CCCCC1)c1ccc(Cl)s1,inactive: 9.08%
3,O=c1[nH]c2ccccc2n1C1CCN(C(c2cc3ccccc3o2)c2nnnn2C2CCCCC2)CC1 (stereo not drawn),inactive: 0.99%
4,O=C(OC1CN2CCC1CC2)C1c2ccccc2Oc2ccccc21 (stereo not drawn),inactive: -1.05%
5,CCOc1ccc(C)cc1CN(CCCl)CCCl,inactive: 3.8%
6,O=C1CCN(Cc2ccccc2)CC1,inactive: 6.21%
7,CC(C)(C)n1nnnc1C(c1ccccc1)N1CCC(n2c(=O)[nH]c3ccccc32)CC1 (stereo not drawn),inactive: 0.52%
8,CCOC(=O)N1CCC(Nc2ccc(F)cc2)CC1,inactive: -3.77%
9,COc1ccc(NC2CCN(CCc3ccccc3)CC2)c(OC)c1,inactive: 2.06%
10,CCCCOc1ccc(C(=O)NCC2(N3CCOCC3)CCCCC2)cc1,inactive: 7.76%
11,O=P1(N(CCCl)CCCl)SCCCS1,inactive: 3.32%
12,CCCCn1nnnc1C(c1cc2ccccc2o1)N1CCC(n2c(=O)[nH]c3ccccc32)CC1 (stereo not drawn),inactive: 2.53%
13,O=C(NCC1(N2CCCCC2)CCCCC1)c1ccc(F)cc1,inactive: -10.1%
14,O=c1[nH]c2ccccc2n1C1CCN(C(c2ccccc2)c2nnnn2C2CCCCC2)CC1 (stereo not drawn),inactive: -5.25%
15,O=c1[nH]c2ccccc2n1C1CCN(C(c2cccc3ccccc23)c2nnnn2C2CCCC2)CC1 (stereo not drawn),inactive: -2.51%
16,CCOC(=O)N1CCC(Nc2cccc(C)c2)CC1,inactive: -4.97%
17,COc1cc(C(=O)NCC2(N(C)C)CCCCC2)ccc1OC(F)F,inactive: -9.42%
18,COc1cc(OC)cc(C(=O)NCC2(N3CCCCC3)CCCCC2)c1,inactive: -0.85%
19,O=c1[nH]c2ccccc2n1C1CCN(C(c2ccnc3ccccc23)c2nnnn2C2CCCCC2)CC1 (stereo not drawn),inactive: -0.11%
20,CCC(c1nnnn1C1CCCCC1)N1CCC(n2c(=O)[nH]c3ccccc32)CC1 (stereo not drawn),inactive: 11.6%
21,COc1cccc(C(c2nnnn2C2CCCCC2)N2CCC(n3c(=O)[nH]c4ccccc43)CC2)c1OC (stereo not drawn),inactive: 2.83%
22,CC(=O)N(c1ccccc1)C1CCNCC1,inactive: 3.46%

row,Structure (SMILES),inhibition
1,Cc1ccc(NC2(C#N)CCN(Cc3ccccc3)CC2)cc1,inactive: 4.5%
2,Fc1ccccc1NC1CCN(Cc2ccccc2)CC1,inactive: 4.79%
3,Cc1ccc(C(=O)NCC2(N3CCCCC3)CCCCC2)o1,inactive: 4.37%
4,COc1ccc(C(c2nnnn2C2CCCCC2)N2CCC(n3c(=O)[nH]c4ccccc43)CC2)cc1 (stereo not drawn),inactive: -2.56%
5,CCN1CCC(Nc2cccc(F)c2)CC1,inactive: -2.57%
6,CC(C)(C)n1nnnc1C(c1ccnc2ccccc12)N1CCC(n2c(=O)[nH]c3ccccc32)CC1 (stereo not drawn),inactive: 13.3%
7,Cc1ccccc1NC1(C#N)CCN(Cc2ccccc2)CC1,inactive: -4.35%
8,CN(C)c1ccc(C(=O)NCC2(N3CCCCC3)CCCCC2)cc1,inactive: 3.13%
9,Cn1c(=O)[nH]cc(N(CCCl)CCCl)c1=O,inactive: -20.6%
10,O=C(NCC1(N2CCCCC2)CCCCC1)c1ccco1,inactive: 3.33%
11,CN1CCC(Nc2ccc(F)c(Cl)c2)CC1,inactive: -4.74%
12,CCOc1ncccc1C(=O)NCC1(N2CCOCC2)CCCCC1,inactive: 2.26%
13,O=c1[nH]c2ccccc2n1C1CCN(C(c2cc3ccccc3o2)c2nnnn2C2CCCC2)CC1 (stereo not drawn),inactive: 0.82%
14,CCCOc1ccc(C(=O)NCC2(N(C)C)CCCCC2)cc1,inactive: -1.51%
15,NN(c1ccccc1)C1CCN(CCc2ccccc2)CC1,inactive: -12.4%
16,O=C(O)C1(Nc2ccccc2)CCN(Cc2ccccc2)CC1,inactive: 0.05%
17,CC(C)(C)OC(=O)N1CCC(Nc2ccccc2)CC1,inactive: 0.95%
18,CCC(CO)(C(=O)OC1CN2CCC1CC2)c1ccccc1 (stereo not drawn),inactive: 3.99%
19,COc1cccc(C(=O)N(c2cc(C)cc(C)c2)C2CCN(C(=O)OC(C)(C)C)CC2)c1,inactive: -7.89%
20,COc1cccc(C(c2nnnn2C2CCCC2)N2CCC(n3c(=O)[nH]c4ccccc43)CC2)c1OC (stereo not drawn),inactive: 5.37%
21,COc1cc(OC)cc(C(=O)NCC2(N3CCOCC3)CCCCC2)c1,inactive: 4.94%
22,CN1CCC(Nc2ccc(Cl)cc2)CC1,inactive: 4.23%

row,Structure (SMILES),inhibition
1,O=C(NCC1(N2CCOCC2)CCCCC1)c1cc(Br)ccc1Cl,inactive: 0.36%
2,COc1cc(C(=O)NCC2(N3CCOCC3)CCCCC2)cc(OC)c1C,inactive: -8.28%
3,CCCCn1nnnc1C(c1ccccc1)N1CCC(n2c(=O)[nH]c3ccccc32)CC1 (stereo not drawn),inactive: 7.93%
4,O=c1[nH]c2ccccc2n1C1CCN(C(c2ccnc3ccccc23)c2nnnn2C2CCCC2)CC1 (stereo not drawn),inactive: 0.57%
5,COc1ccc(C(=O)NCC2(N3CCOCC3)CCCCC2)cc1OC,inactive: 9.25%
6,O=c1[nH]c2ccccc2n1C1CCN(C(c2cccs2)c2nnnn2C2CCCCC2)CC1 (stereo not drawn),inactive: -1.89%
7,N/C(=N\O)c1c(N)no[n+]1[O-],inactive: 2.04%
8,CCOC(=O)N1CCC(Nc2ccc(C)cc2)CC1,inactive: 0.51%
9,COc1cccc(C(c2nnnn2C(C)(C)C)N2CCC(n3c(=O)[nH]c4ccccc43)CC2)c1OC (stereo not drawn),inactive: 8.8%
10,CCCCn1nnnc1C(c1cccc(OC)c1OC)N1CCC(n2c(=O)[nH]c3ccccc32)CC1 (stereo not drawn),inactive: 2.61%
11,O=c1[nH]c2ccccc2n1C1CCN(C(c2cccs2)c2nnnn2C2CCCC2)CC1 (stereo not drawn),inactive: 10.4%
12,O=C(OC1CN2CCC1CC2)C1c2ccccc2C=Cc2ccccc21 (stereo not drawn),inactive: 1.45%
13,CC(C)(C)OC(=O)N1CCC(N(C(=O)c2ccccc2)c2ccc(Cl)cc2)CC1,inactive: -8.79%
14,N#Cc1ccc(C(=O)NCC2(N3CCCCC3)CCCCC2)cc1,inactive: 5.39%
15,CCCN1CCC(Nc2cc(OC)cc(OC)c2)CC1,inactive: 0.61%
16,O=c1[nH]c2ccccc2n1C1CCN(C(c2ccccc2)c2nnnn2C2CCCC2)CC1 (stereo not drawn),inactive: 3.14%
17,Cc1cc(N(CCCl)CCCl)ccc1C=O,inactive: -4.81%
18,c1ccc(CN2CCC(Nc3ccccc3)CC2)cc1,inactive: 0.33%
19,CN(C)C1(CNC(=O)c2cccc(C#N)c2)CCCCC1,inactive: 6.25%
20,CC(C)(C)n1nnnc1C(c1cccc2ccccc12)N1CCC(n2c(=O)[nH]c3ccccc32)CC1 (stereo not drawn),inactive: 3.6%
